Assay results: article PMC4820845, “ELL targets c-Myc for proteasomal degradation and suppresses tumour growth” (Nature Communications, 2016)

Target: T1, His-tagged ELL (human, UniProt P55199 1-621)
T1 construct: ELL, human; also called His-ELL; His6-ELL; source: E. coli (BL21), purified
T1 sequence (looked up): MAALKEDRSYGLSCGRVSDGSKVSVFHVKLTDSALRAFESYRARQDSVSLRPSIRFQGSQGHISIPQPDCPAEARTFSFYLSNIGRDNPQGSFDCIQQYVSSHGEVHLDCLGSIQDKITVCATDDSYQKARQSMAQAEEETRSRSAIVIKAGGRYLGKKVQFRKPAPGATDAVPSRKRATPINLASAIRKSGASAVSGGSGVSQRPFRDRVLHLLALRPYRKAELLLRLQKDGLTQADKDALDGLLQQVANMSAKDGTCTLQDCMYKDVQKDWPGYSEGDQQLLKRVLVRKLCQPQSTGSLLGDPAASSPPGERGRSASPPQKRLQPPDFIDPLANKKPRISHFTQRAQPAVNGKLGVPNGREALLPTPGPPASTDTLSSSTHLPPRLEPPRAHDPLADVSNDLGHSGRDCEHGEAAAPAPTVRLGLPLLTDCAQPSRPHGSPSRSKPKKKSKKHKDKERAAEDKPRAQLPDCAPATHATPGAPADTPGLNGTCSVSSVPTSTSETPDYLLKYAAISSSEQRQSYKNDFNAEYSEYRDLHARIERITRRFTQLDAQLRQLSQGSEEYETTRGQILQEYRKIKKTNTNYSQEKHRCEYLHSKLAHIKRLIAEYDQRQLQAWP
Assay: pull-down; GST-tagged c-Myc on GST-Bind Resin, His-tagged ELL detected by western blot; both expressed in E. coli (BL21) and purified
Conditions: both partners purified

binding result: binds
B1: GST-tagged c-Myc (natural protein, human, UniProt P01106-1 1-439, looked up)
chain: MPLNVSFTNRNYDLDYDSVQPYFYCDEEENFYQQQQQSELQPPAPSEDIWKKFELLPTPPLSPSRRSGLCSPSYVAVTPFSLRGDNDGGGGSFSTADQLEMVTELLGGDMVNQSFICDPDDETFIKNIIIQDCMWSGFSAAAKLVSEKLASYQAARKDSGSPNPARGHSVCSTSSLYLQDLSAAASECIDPSVVFPYPLNDSSSPKSCASQDSSAFSPSSDSLLSSTESSPQGSPEPLVLHEETPPTTSSDSEEEQEDEEEIDVVSVEKRQAPGKRSESGSPSAGGHSKPPHSPLVLKRCHVSTHQHNYAAPPSTRKDYPAAKRVKLDSVRVLRQISNNRKCTSPRSSDTEENVKRRTHNVLERQRRNELKRSFFALRDQIPELENNEKAPKVVILKKATAYILSVQAEEQKLISEEDLLRKRREQLKHKLEQLRNSCA
notes: c-Myc, human; the printed residue numbers fit the 439-residue form; also called GST-c-Myc; source: E. coli (BL21), purified
